By IC50 is commonly meant the concentration that inhibits the measured activity by half. The term EC50 denotes the midpoint of the concentration-response curve.

Among the data in patent US6602856B1, “Antagonists of alpha-melanocyte stimulating hormone and methods based thereon” (priority 1995, dated 2003) are IC50 and EC50 values, retold here.

For the first experiment, the target named is T1, endogenous amphibian MSH-receptors (Xenopus laevis, UniProt A0A1L8GF34).
T1 sequence (A0A1L8GF34 1-317): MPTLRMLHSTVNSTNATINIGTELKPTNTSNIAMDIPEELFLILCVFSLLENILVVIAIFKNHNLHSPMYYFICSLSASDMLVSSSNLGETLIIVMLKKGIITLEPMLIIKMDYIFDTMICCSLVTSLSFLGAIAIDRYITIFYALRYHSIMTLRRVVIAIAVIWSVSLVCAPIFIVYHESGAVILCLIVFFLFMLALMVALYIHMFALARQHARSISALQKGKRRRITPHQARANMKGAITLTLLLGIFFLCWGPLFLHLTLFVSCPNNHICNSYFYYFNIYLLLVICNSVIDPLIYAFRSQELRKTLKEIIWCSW
The format is cell-based. The settings on record: against 15 nM α-MSH; mean±SE. Here is the method: Melanin dispersion responses were quantitated by measuring transmittance through a monolayer of cultured melanophores pretreated with 1 nM melatonin (Potenza, et. al., 1992, Anal Biochem. 206, 315-22) and curve fit with a logistic equation (De Lean et al., 1978, Am J. Physiol. 235, E97-E102).
Broken lines indicate 99% confidence level.
Each point represents the mean and SSD of four independent transmittance measurements. Ti=initial transmittance (2 min.). Tf=final transmittance (60 min.).
For dose-response studies all tripeptides were synthesized on Rink Amide MBHA resin 0.25 mmol scale using standard Fmoc chemistry. After synthesis, peptides were purified suing HPLC and reverse-phase chromatography on a C18 column. The dose-response curves were obtained by microtiter plate assays (Potenza et al, 1992, Pigment Cell Res. 5, 372-378). Melanophore cells (18,000/well) were plated on 96-well tissue culture plates (Falcon).
D-Trp-Arg-Nle-NH2 [A2] came in with a 50% inhibitory concentration (IC50) of 0.93 ± 0.22 µM.

The experiment is the same for the next values; noted with them: against 15 nM α-MSH; melanophores pretreated with 1 nM melatonin; mean±SE.
Take D-His-Arg-Nle-NH2 [C5]: the IC50 was 318 ± 105 µM.

On to D-Trp-Arg-Abu-NH2 [A7], for which the IC50 is 82 ± 41 µM.

As for D-Trp-Arg-D-Arg-NH2 [A10], the IC50 was determined as 664 ± 397 µM.

Take Trp-Arg-Nle-NH2 [C4]: the concentration for half-maximal inhibition (IC50) was 100 ± 2 µM.

As for Ac-D-Trp-Arg-Nle-NH2 [C3], the concentration for half-maximal inhibition (IC50) came to 43 ± 8 µM.

In the case of D-Trp-Ala-Nle-NH2 [B5], the IC50 was 65 ± 18 µM.

For the substance D-Trp-Arg-Nle-NH2 [A2], the IC50 worked out at 0.93 ± 0.22 µM.

On to D-Trp-D-Arg-Nle-NH2 [B2], for which the IC50 is 30 ± 11 µM.

For D-Trp-Nle-Nle-NH2 [B4], the IC50 was determined as 59 ± 12 µM.

Turning to D-Trp-Arg-Nva-NH2 [A3], the half-inhibitory concentration (IC50) turned out to be 3.3 ± 1.1 µM.

Turning to D-Trp-Abu-Nle-NH2 [B7], the half-inhibitory concentration (IC50) turned out to be 405 ± 69 µM.

For the substance D-Trp-Leu-Nle-NH2 [B3], the IC50 stood at 48 ± 2.2 µM.

As to D-Trp-Met-Nle-NH2 [B6], the IC50 is 121 ± 27 µM.

In the case of D-Trp-Lys-Nle-NH2 [B1], the 50% inhibitory concentration (IC50) amounted to 15 ± 1 µM.

Take D-Tyr-Arg-Nle-NH2 [C2]: the IC50 was 28 ± 2 µM.

Turning to D-Trp-Arg-D-Nle-NH2 [A5], the half-inhibitory concentration (IC50) came out at 9.9 ± 1.8 µM.

On to D-Phe-Arg-Nle-NH2 [C1], for which the IC50 was 4.4 ± 1.2 µM.

Take D-Trp-Arg-Arg-NH2 [A9]: the IC50 was found to be 261 ± 68 µM.

Staying with this experiment, now noted: against 15 Nm α-MSH; mean±SE.
D-Trp-Arg-Nle-NH2 [A2] gave an IC50 of 0.93 ± 0.22 µM.

Staying with this experiment, now noted: agonist, Xenopus melanophores; read-out: EC50 (pigment dispersion).
As for “α-melanocyte stimulating hormone [α-MSH, reference compound]”, the 50% effective concentration (EC50) is approximately 0.002 µM.

The same experiment, now with this note: pigment dispersion, transmittance 2 min to 60 min, FIG. 5; read-out: EC50 for α-MSH alone.
Regarding “α-melanocyte stimulating hormone [α-MSH, reference compound]”, the concentration for a half-maximal effect (EC50) was 0.0025 ± 0.0003 µM.
